Data published in article PMC3336786 (The FASEB Journal, 2012).
pIC50: −log10 of the molar value.

Amino acid sequences for entries named in this document (tags omitted). A change or cut given only in a name is not applied to a line headed by its entry. Residues count along the entry.
UniProt P18507, 40-475: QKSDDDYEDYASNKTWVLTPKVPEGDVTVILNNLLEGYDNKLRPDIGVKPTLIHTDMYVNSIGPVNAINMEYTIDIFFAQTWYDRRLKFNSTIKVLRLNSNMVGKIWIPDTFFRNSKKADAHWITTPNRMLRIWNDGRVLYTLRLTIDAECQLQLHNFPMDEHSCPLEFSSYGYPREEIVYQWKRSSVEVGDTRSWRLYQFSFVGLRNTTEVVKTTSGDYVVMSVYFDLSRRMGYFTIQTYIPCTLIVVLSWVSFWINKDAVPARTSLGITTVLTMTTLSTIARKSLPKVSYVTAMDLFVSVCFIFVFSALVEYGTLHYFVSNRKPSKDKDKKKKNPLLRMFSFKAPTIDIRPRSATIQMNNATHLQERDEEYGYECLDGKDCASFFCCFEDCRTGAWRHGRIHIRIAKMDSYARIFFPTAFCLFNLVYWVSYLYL

Columns and labels:
[1] = target: T1, α1V2'Aβ2 (Homo sapiens, UniProt P14867+P47870, V284A); format: cell-based; conditions: IC50, inhibition of GABA EC50 response
T1 sequence (P14867 28-456 V284A): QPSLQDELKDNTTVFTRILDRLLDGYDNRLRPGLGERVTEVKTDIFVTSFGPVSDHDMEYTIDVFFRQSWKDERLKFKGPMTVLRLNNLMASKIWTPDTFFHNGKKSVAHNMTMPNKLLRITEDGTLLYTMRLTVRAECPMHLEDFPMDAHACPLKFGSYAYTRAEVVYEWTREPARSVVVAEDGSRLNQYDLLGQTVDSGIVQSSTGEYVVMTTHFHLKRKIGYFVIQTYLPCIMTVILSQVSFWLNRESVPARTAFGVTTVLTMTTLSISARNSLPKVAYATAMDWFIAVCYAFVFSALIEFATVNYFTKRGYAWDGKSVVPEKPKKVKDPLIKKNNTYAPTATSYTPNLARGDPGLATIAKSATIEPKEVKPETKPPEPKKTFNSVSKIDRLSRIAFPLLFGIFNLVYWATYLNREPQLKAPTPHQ
T1 sequence (P47870 26-512): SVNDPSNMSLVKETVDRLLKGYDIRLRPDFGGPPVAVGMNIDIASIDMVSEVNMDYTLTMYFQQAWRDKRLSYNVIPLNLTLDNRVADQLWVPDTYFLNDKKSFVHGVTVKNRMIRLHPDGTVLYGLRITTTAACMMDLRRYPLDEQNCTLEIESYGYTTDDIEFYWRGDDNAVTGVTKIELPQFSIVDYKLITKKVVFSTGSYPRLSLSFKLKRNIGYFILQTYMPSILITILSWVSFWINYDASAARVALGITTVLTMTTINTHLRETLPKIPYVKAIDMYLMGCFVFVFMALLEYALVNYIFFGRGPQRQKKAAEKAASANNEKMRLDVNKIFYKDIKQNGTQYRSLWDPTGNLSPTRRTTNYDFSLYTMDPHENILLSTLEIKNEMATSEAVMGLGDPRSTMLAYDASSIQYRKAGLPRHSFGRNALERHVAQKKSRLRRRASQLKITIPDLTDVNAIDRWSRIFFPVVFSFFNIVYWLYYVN

[2] = target: α1V2'Aβ2γ2 (Homo sapiens, UniProt P14867+P18507+P47870, V284A); format: cell-based

C[C@@H]1C(=O)O[C@H]2C[C@@]34[C@H]5C[C@@H](C(C)(C)C)[C@]36[C@@H](OC(=O)[C@@H]6O)O[C@@]4(C(=O)O5)[C@]21O [GA, ginkgolide A]
pIC50 [1]: 4.69
pIC50 [2]: 5.33
